Results published in patent US9745299B2, “Substituted tricyclic benzimidazoles as kinase inhibitors” (SELVITA SA, priority 2012, dated 2017).

Chains of the proteins cited; added tags and fusions are not shown.
UniProt P50750, whole entry: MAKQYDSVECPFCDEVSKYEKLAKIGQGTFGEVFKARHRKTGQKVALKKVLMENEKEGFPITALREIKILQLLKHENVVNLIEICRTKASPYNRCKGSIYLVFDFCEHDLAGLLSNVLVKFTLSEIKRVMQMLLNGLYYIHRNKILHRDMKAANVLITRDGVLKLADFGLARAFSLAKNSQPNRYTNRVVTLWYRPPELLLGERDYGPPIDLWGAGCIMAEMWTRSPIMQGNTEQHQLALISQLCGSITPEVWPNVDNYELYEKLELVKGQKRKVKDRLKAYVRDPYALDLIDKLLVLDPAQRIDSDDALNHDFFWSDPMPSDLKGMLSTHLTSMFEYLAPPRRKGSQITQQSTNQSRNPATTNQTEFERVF
UniProt Q00535, whole entry: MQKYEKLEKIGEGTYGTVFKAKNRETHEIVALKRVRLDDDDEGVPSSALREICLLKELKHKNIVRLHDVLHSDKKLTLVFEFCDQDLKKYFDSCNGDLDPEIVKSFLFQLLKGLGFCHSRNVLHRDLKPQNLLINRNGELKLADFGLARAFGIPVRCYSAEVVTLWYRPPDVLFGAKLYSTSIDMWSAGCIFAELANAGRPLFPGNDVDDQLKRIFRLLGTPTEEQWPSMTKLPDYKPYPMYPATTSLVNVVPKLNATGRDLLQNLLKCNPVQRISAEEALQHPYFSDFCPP

Columns and labels:
Format in all cases: biochemical
CDK2/CyclinE = target: T1, CDK2/CyclinE (Homo sapiens, UniProt P24941); assay: ADP-Glo Kinase Assay, CDK2/CyclinE; conditions: 1 μM compound; ATP at apparent Km (130 μM)
T1 construct: purchased Millipore, Billerica, Mass., USA
Procedure: (§1) Testing of the compounds described in this invention was carried out using the ADP-Glo™ Kinase Assay from Promega Corporation (Madison, Wis., USA).
(§2) The ADP-Glo™ Kinase Assay is a luminescent ADP detection assay to measure kinase activity by quantifying the amount of ADP produced during a kinase reaction. The kinase assay is performed in kinase assay buffer (5 mM MOPS, pH 7.5, 5 mM MgCl2, 0.4 mM EDTA, 1.5 mM DTT). Test samples initially dissolved in DMSO at 10 mM were diluted with the assay buffer to 1000 nM. A 30 μL volume/well of a mixture of substrates containing ATP (final ATP concentration in each kinase assay was equal to its apparent ATP Km).
(§3) The assay was performed in two steps: first, after the kinase reaction, an equal volume of ADP-Glo™ Reagent was added to terminate the kinase reaction and deplete the remaining ATP. Second, the Kinase Detection Reagent was added to simultaneously convert ADP to ATP and allowed the newly synthesized ATP to be measured using a luciferase/luciferin reaction. The luminescent signal generated was proportional to the ADP concentration produced and was correlated with kinase activity.

CDK9/CyclinT = target: T2, CDK9/CyclinT (Homo sapiens, UniProt P50750); assay: ADP-Glo Kinase Assay, CDK9/CyclinT; conditions: 1 μM compound; ATP at apparent Km (26 μM)
T2 construct: purchased Proqinase, Freiburg, Germany
Procedure: as §1, §2, §3

CDK5/p25 = target: T3, CDK5/p25 (Homo sapiens, UniProt Q00535); assay: ADP-Glo Kinase Assay, CDK5/p25; conditions: 1 μM compound; ATP at apparent Km (12 μM)
T3 construct: purchased Millipore, Billerica, Mass., USA
Procedure: as §1, §2, §3

CN1CC[C@H](c2c(O)cc(O)c3c(=O)cc(-c4ccccc4Cl)oc23)C(O)C1 (stereo partly drawn) [Flavopiridol, flavopyridol, reference compound]
% inhibition at 1 μM CDK2/CyclinE (CDK2/CyclinE): 68% | % inhibition at 1 μM CDK9/CyclinT (CDK9/CyclinT): 93% | % inhibition at 1 μM CDK5/p25 (CDK5/p25): 50%
